Data on 1 compound can be found in patent US20260256778A1 (AbbVie Inc., priority 2023, published 2026).

For series [1], the system named is non-segmental vitiligo (NSV). Particulars: 22 mg QD, Week 24.
Series [2] is described as follows: Solubility of upadacitinib in different aqueous media at 37° C. The conditions noted are these: 50 mM citrate buffer, pH 5.96, aqueous buffer, thermodynamic from solid, pH nominal 6.01, final 5.96, 37° C. Type of series: physicochemical.

Converted amounts (≈) assume the structure as drawn.

A word on the solubility: it is the concentration that dissolves in the medium under given conditions. Lower therefore signals a poorly soluble substance. As for `CC[C@@H]1CN(C(=O)NCC(F)(F)F)C[C@@H]1c1cnc2cnc3[nH]ccc3n12` [Upadacitinib, (3S,4R)-3-ethyl-4-(3H-imidazo[1,2-a]pyrrolo[2,3-e]pyrazin-8-yl)-N-(2,2,2-trifluoroethyl) pyrrolidine-1-carboxamide], the “CFB in VitiQoL Total Score; LSMEAN (SE)” value in series [1] is listed as −6.6 (2.56). This compound registered a solubility in series [2] of 196 ± 1 µg/mL (≈ 515 µM).
